The record followed here is ChEMBL document CHEMBL4732055, “Discovery of fast-acting dual-stage antimalarial agents by profiling pyridylvinylquinoline chemical space via copper catalyzed azide-alkyne cycloadditions” (Eur J Med Chem, 2021).

This experiment in a line: Resistant index, ratio of EC50 for antiplasmodial activity against chloroquine-resistant Plasmodium falciparum Dd2 to EC50 for antiplasmodial activity against chloroquine-sensitive Plasmodium falciparum 3D7. The class given is functional.

Consider `Clc1ccc2nc(/C=C/c3ccncc3)cc(NCCCCn3cc(CN4CCCC4)nn3)c2c1`, for which the Ratio EC50 came out at 1.32.
